Measured values: patent US6500222B2, “Diureides and their use” (priority 1999, dated 2002)
Only a part of the results on these compounds is given; other tests are left out.

System: ryegrass
Assay: Crop production experiment in Mitscherlich containers with ryegrass as test crop
Settings: for Dry-matter production / Nitrogen uptake: 2.4 g of N per container

With ammonium nitrate the “Remarks (plant damage)” value (2.4 g of N per container (770 kg of N/ha), plants assessed prior to each cut) was “plant damage was provoked”, the Dry-matter production (day 16 post-fertilization) was 8.7 g/container and the Nitrogen uptake (day 16 post-fertilization) was 508 mg/container. The Dry-matter production (day 30 post-fertilization) was 8.5 g/container, the Nitrogen uptake (day 30 post-fertilization) was 443 mg/container and the Dry-matter production (day 45 post-fertilization) was 11 g/container. It also gave a Nitrogen uptake (day 45 post-fertilization) of 523 mg/container, a Dry-matter production (day 58 post-fertilization) of 9.1 g/container and a Nitrogen uptake (day 58 post-fertilization) of 435 mg/container. The Dry-matter production (day 78 post-fertilization) was 7.9 g/container, the Nitrogen uptake (day 78 post-fertilization) was 194 mg/container and the Dry-matter production (day 100 post-fertilization) was 2.7 g/container. The Nitrogen uptake (day 100 post-fertilization) was 57 mg/container, the Dry-matter production (day 125 post-fertilization) was 1.8 g/container and the Nitrogen uptake (day 125 post-fertilization) was 43 mg/container. The Dry-matter production (day 154 post-fertilization) was 1 g/container, the Nitrogen uptake (day 154 post-fertilization) was 21 mg/container and the Dry-matter production (day 174 post-fertilization) was 0.3 g/container. The Nitrogen uptake (day 174 post-fertilization) was 6 mg/container.
